According to PubChem BioAssay AID463229 (Broad Institute, 2010):

Tested on: INS-1E rat beta cells, no cytokines, CellTiter-Glo ATP, 48 h
Test: cytokine-free beta-cell viability effect – INS-1E rat cells, ATP luminescence, cherry pick, counter-screen for beta-cell apoptosis protection project, dose response (AID 463229)

Question: With `CC[n+]1c(/C=C/N(C)c2ccccc2)oc2ccccc21` as the compound, how does the AC50 read?
Answer: 893 nM
